Test results taken from paper PMC8969894 (Journal of medicinal chemistry, 2021).

Test system: Sprague-Dawley rats
Settings: 10 mg/kg i.p., p > 0.05

Question: For O=C(NCCc1cccc(Cl)c1)Nc1ccc(Cl)cc1 [Compound 31, 3-(4-Chlorophenyl)-1-[2-(3-chlorophenyl)ethyl]urea], which inactive lever response is on record?
Answer: did not significantly affect
